Results: ChEMBL document CHEMBL3603811, “Design, chemical synthesis and biological evaluation of 3-spiromorpholinone/3-spirocarbamate androsterone derivatives as inhibitors of 17β-hydroxysteroid dehydrogenase type 3” (Bioorg Med Chem, 2015)

Molecular target: T1, 17-beta-hydroxysteroid dehydrogenase type 3 (Rattus norvegicus) (UniProt O54939)
T1 sequence (whole entry): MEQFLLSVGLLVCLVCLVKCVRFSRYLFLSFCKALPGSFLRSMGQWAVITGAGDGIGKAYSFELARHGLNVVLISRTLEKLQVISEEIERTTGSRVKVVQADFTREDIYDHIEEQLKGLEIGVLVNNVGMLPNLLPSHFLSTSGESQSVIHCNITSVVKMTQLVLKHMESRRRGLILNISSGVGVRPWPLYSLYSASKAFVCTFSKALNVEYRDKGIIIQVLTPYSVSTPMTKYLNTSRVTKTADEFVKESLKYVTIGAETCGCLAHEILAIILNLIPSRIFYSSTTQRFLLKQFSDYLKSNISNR
Assay: Inhibition of 17beta-HSD3 in rat testes microsomes using [14C]-4-androstene-3,17-dione as substrate measured based on 18% of initial enzyme transformation at 1 uM after 2 hrs
Settings: Testis
Summary of the method: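 Rat testis microsomes: homogenate in phosphate/sucrose/EDTA buffer pH 7.5 with protease inhibitors, spun 12,500g, then pellet from 100,000g, at 4 °C. Reaction 2 h at 37 °C in 50 mM sodium phosphate pH 7.4, 20% glycerol, 1 mM EDTA, with NADPH and [14C]-Δ4-dione (50 nM). Inhibitor in DMSO. [14C]-T and substrate identified against reference steroids and quantified. Percent transformation and percent inhibition calculated.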

- inhibition: 92.1%
SMILES: C[C@@H]1CN(S(=O)(=O)c2ccccc2C(F)(F)F)[C@@H](C)CN1C[C@@]1(O)CC[C@@]2(C)[C@@H](CC[C@@H]3[C@@H]2CC[C@]2(C)C(=O)CC[C@@H]32)C1
